{"source": "ChEMBL document CHEMBL3228021", "about": "“Studies on analgesic agents. 1.1a Preparation of 1,2-diphenyl-2-(4-substituted 1-piperazinyl)ethanol derivatives and structure-activity relationships” (J Med Chem, 1979)", "key": {"Mus musculus [1]": {"test_system": "Mus musculus", "assay": "Analgesic activity in po dosed ddN mouse assessed as inhibition of phenylquinone-induced writhing in presence of naloxone hydrobromide"}, "Mus musculus [2]": {"test_system": "Mus musculus", "assay": "Analgesic activity in sc dosed ddN mouse assessed as inhibition of light radiation-induced thermal pain in presence of naloxone hydrobromide by D'Amour-Smith method"}}, "note": "Active and inactive are the calls of the source. The calls are words filed in the database; no cut-off is given here."}
{"smiles": "CC(C)=CCN1CC[C@]2(C)c3cc(O)ccc3C[C@H]1[C@H]2C", "values": [{"measurement": "inhibition", "setting": "Mus musculus [1]", "result": "inactive"}, {"measurement": "inhibition", "setting": "Mus musculus [2]", "result": "inactive"}]}
{"smiles": "COc1ccc2c3c1O[C@H]1[C@@H](O)C=C[C@H]4[C@@H](C2)N(C)CC[C@@]341.COc1ccc2c3c1O[C@H]1[C@@H](O)C=C[C@H]4[C@@H](C2)N(C)CC[C@@]341.O.O=P(O)(O)O.O=P(O)(O)O", "note": "[CODEINE PHOSPHATE]", "values": [{"measurement": "inhibition", "setting": "Mus musculus [1]", "result": "inactive"}, {"measurement": "inhibition", "setting": "Mus musculus [2]", "result": "inactive"}]}
{"smiles": "COc1ccc(CN2CCN(C(c3ccccc3Cl)C(O)c3ccccc3)CC2)cc1", "note": "(stereo unspecified)", "values": [{"measurement": "inhibition", "setting": "Mus musculus [1]", "result": "inactive"}, {"measurement": "inhibition", "setting": "Mus musculus [2]", "result": "inactive"}]}
